target: Casein kinase II (Homo sapiens, UniProt P19784+P67870+P68400); assay: Inhibition of human recombinant CK2 assessed as inhibition of [gamma33P]ATP incorporation into substrate by […]; type: protein-complex assay

By UniProt entry, the sequences of proteins in these tests, tags left out.
UniProt P19784, whole entry: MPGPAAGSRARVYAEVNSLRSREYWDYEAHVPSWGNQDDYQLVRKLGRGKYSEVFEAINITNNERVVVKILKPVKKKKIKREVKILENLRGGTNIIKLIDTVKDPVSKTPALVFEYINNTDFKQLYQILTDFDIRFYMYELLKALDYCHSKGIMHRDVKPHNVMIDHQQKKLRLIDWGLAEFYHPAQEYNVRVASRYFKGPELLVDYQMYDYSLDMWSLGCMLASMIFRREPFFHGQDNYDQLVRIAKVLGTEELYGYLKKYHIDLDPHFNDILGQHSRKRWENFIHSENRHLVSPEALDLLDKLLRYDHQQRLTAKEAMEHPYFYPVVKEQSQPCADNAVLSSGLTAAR
UniProt P67870, whole entry: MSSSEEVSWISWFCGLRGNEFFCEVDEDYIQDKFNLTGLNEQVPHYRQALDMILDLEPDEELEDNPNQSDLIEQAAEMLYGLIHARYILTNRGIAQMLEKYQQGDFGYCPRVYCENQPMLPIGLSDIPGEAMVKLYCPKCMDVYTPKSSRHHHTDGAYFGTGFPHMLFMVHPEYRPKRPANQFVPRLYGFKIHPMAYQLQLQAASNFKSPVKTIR
UniProt P68400, whole entry: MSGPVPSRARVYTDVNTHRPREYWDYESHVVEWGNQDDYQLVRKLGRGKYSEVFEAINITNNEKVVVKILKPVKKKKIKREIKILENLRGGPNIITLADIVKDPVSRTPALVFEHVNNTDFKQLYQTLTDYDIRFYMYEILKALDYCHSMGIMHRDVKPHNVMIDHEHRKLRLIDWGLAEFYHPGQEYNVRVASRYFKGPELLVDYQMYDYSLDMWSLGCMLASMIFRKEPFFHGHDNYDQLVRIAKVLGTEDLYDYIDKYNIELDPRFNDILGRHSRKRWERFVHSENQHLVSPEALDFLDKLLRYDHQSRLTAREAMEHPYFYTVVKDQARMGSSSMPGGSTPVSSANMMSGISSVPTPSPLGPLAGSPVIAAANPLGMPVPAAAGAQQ

IC50 | Structure (SMILES)
> 0.5 µM | COC(=O)c1ccc2c(c1)nc(Nc1cccc(Cl)c1)c1ccncc12
> 25 µM | NC(=O)c1ccc2c(c1)[nH]c(=O)c1ccsc12
> 25 µM | O=c1[nH]c2cc(CO)ccc2c2sccc12

From ChEMBL document CHEMBL1649412, “Discovery and SAR of 5-(3-chlorophenylamino)benzo[c][2,6]naphthyridine-8-carboxylic acid (CX-4945), the first clinical stage inhibitor of protein kinase CK2 for the treatment of cancer” (J Med Chem, 2011)
